Results reported in US5830909A, “Angiotensin (AII) antagonists as inhibitors of the growth of adipose tissue” (American Cyanamid Company, priority 1996, dated 1998).

Amino acid sequences for entries named in this document (tags omitted).
UniProt P25095, whole entry: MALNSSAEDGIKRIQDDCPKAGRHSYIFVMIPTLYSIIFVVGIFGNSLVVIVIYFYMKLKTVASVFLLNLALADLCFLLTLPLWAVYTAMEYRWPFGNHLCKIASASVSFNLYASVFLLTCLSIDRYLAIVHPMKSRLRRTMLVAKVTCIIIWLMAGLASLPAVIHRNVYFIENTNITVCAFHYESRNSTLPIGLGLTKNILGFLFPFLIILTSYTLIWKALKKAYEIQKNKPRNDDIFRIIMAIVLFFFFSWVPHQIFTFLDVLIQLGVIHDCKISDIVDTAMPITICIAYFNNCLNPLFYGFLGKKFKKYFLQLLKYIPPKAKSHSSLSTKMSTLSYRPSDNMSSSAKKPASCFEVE

Key:
AII receptor [1] = target: T1, AII receptor (Rattus norvegicus, UniProt P25095); assay: Displacement of 125I[Sar,Ile]AII binding in rat retroperitoneal fat cell membranes; settings: 1 nM radioligand, 1-4 assays, read-out: Inhibitory Constants (IC50) for displacement of 125I[Sar,Ile]AII binding, Retroperitoneal
T1 construct: adipose tissue from the epididymal and retroperitoneal depots is quickly excised; from tissue; host or cells: membranes of collagenase-isolated adipocytes from epididymal and retroperitoneal fat of male Sprague-Dawley rats
Description: (§1) The experimental design involves determining the binding characteristics of adipocyte membranes harvested from two different anatomic sites at three different ages. Male Sprague-Dawley rats (Charles River Laboratories, Wilmington, Mass.) are used at 40, 70 and 100 days of age. Rats are killed by carbon dioxide inhalation on the morning of the experiment, and adipose tissue from the epididymal and retroperitoneal depots is quickly excised and placed in cold saline. The spermatic artery and vein are removed from the epididymal fat, and brown fat deposits are dissected away from the retroperitoneal depot. […] Protein content of the high speed pellet is determined, the resuspended protein is either assayed immediately or stored at -75° before binding assays are performed. […] Separation of bound from free radioactivity is achieved using any appropriate filtration apparatus. […] The filters are placed in tubes, and radioactivity measured in a gamma scintillation counter programmed to correct for the half-life of the isotope. Using this experimental protocol, both the affinity (KD) and number of binding sites (Bmax) for angiotensin II on the adipocyte membrane can be calculated. The relative affinities of different anatomically distinct adipocyte membranes for a variety of peptide and nonpeptide antagonists can also be determined. […]

AII receptor [2] = target: T1, AII receptor; assay: Displacement of 125I[Sar,Ile]AII binding in rat epididymal fat cell membranes; settings: 1 nM radioligand, 1-4 assays, read-out: Inhibitory Constants (IC50) for displacement of 125I[Sar,Ile]AII binding, Epididymal
Description: as §1

For Sar^1-Ala^8 AII [reference compound], the IC50 (AII receptor [1]) was 2.63 nM and the IC50 (AII receptor [2]) was 4.31 nM.
